Source: PMC3586484, “Comparative Cytochrome P450 In Vitro Inhibition by Atypical Antipsychotic Drugs” (ISRN Pharmacology, 2013)

The chains behind the UniProt entries cited, without tags or fusion partners.
UniProt P10635, whole entry: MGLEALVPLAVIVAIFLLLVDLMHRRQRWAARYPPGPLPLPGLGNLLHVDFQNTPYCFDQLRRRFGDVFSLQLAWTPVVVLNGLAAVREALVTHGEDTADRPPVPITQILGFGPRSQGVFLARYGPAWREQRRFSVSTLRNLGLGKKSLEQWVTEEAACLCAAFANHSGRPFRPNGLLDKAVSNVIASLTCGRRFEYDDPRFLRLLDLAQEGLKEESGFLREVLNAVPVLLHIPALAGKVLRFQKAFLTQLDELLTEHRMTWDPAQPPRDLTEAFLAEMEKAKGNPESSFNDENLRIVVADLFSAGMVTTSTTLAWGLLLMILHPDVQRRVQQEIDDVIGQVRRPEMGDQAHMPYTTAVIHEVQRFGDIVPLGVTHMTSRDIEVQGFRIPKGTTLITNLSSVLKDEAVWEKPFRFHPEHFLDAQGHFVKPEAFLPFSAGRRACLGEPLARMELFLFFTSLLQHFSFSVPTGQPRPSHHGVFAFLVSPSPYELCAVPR

Experiments:
[1] = test system: CYP3A; assay: Inhibition of CYP3A-mediated midazolam 1′-hydroxylation in human liver microsomes; type: in vitro ADME
Procedure: (§1) The mass spectrometer was run in the positive ion mode. Nitrogen as the drying gas was supplied at a flow of 10 L/minutes and at a temperature of 350°C.

[2] = test system: CYP3A; assay: Inhibition of CYP3A-mediated midazolam 4′-hydroxylation in human liver microsomes; type: in vitro ADME
Procedure: as §1

[3] = target: CYP2D6 (Homo sapiens, UniProt P10635); conditions: cited from earlier work
[4] = reported therapeutic concentrations; ref Kirchherr and Kühn-Velten [18]; cited from earlier work
[5] = relative to the mean of reported therapeutic concentrations

Row | Structure (SMILES) | Ki at 30 min ([1]; human, human liver microsomes, pH 7.5, probe midazolam (1′-hydroxylation), 10 μM, estimate obtained from IC50 as described in [17] (IC50-to-Ki tool), read-out: K i, CYP3A (1-hydroxylation)) [µM] | inhibition at 30 min ([1]; pH 7.5, probe midazolam (1′-hydroxylation), 10 μM, human liver microsomes, inhibitor 0.05 to 50 μM, read-out: I max (maximum inhibition), CYP3A (1-hydroxylation)) [%] | IC50 at 30 min ([1]; pH 7.5, probe midazolam (1′-hydroxylation), human liver microsomes, 10 μM midazolam, 30 min 37°C) [µM] | Inhibitory potency ([inhibitor]/K i), CYP3A (1-hydroxylation) [1, 5] | Ki at 30 min ([2]; human, human liver microsomes, pH 7.5, probe midazolam (4′-hydroxylation), 10 μM, estimate obtained from IC50 as described in [17] (IC50-to-Ki tool), read-out: K i, CYP3A (4′-hydroxylation)) [µM] | inhibition at 30 min ([2]; pH 7.5, probe midazolam (4′-hydroxylation), 10 μM, human liver microsomes, inhibitor 0.05 to 50 μM, read-out: I max (maximum inhibition), CYP3A (4′-hydroxylation)) [%] | IC50 at 30 min ([2]; pH 7.5, probe midazolam (4′-hydroxylation), human liver microsomes, 10 μM midazolam, 30 min 37°C) [µM] | Inhibitory potency ([inhibitor]/K i), CYP3A (4′-hydroxylation) [2, 5] | Inhibition of CYP2D6 (in words, literature) [3] | Therapeutic range [4] [µM]
1 | Cc1cc2c(s1)Nc1ccccc1N=C2N1CCN(C)CC1 [Olanzapine] | 7.3 | 77.1 | 14.7 | 0.0212 | 21.1 | 58.8 | 42.2 | 0.0073 | – | –
2 | Cc1nc2n(c(=O)c1CCN1CCC(c3noc4cc(F)ccc34)CC1)CCCC2 [Risperidone] | – | – | – | – | – | – | – | – | inhibitory effect | 0.04 to 0.15
